Assay results as given in patent US9907837B2, “Composition for preventing or treating cachexia” (GemVax & KAEL Co., Ltd., priority 2012, dated 2018).

Columns and labels:
[1] = system: CIA (collagen induced arthritis) mouse; assay: CIA (collagen induced arthritis) mouse model, second experiment; format: in vivo; details: second experiment, 0.2, 1, 2, 5 nM, 100 μl intradermal
Method: (§1) In the first and second experiment mentioned below, lyophilized and formed in powder PEP1 according to the Example 1 was dissolved in 0.9% saline solution and was used. After doing amendment of the purity (purity: 97.3%, content: 85.3%) of PEP1, the solution for injection was made in each concentration with 0.9% saline solution as an additive just before an administration. Every dose was administered by the solution in an amount of 100 μl.
Like the first experiment, the first inducement was done to 38 mice at day 1 by using 5-week mice, the mice were divided into the group consisting of 32 mice administered by a peptide composition before CIA inducement (8 mice of 0.2 nM, 100 μl (i.e. around 0.04 ng); 8 mice of 1 nM, 100 μl (around 0.2 ng dose); 8 mice of 2 nM, 100 μl (i.e. around 0.4 ng); 8 mice of 5 nM, 100 μl (i.e. around 1 ng)) and the PBS treatment group consisting of 6 mice.
The second inducement was done at day 21, and the treatment was done by intradermal injection in each suitable concentration to each group at day 23, 25 and 27 (see FIG. 2).
The assessment of rheumatoid arthritis index was done at from the day of second inducement to the day 42 per every two days and the joint and serum was collected after sacrificing all mice at day 42.

[2] = system: CIA (collagen induced arthritis) mouse; assay: CIA (collagen induced arthritis) mouse model, first experiment; format: in vivo, DBA/1J mouse; details: 1 nM or 10 nM, 100 μl intradermal
Method: In order to find effectiveness of the peptide according to the present invention to rheumatoid arthritis (RA), CIA (collagen induced arthritis) mouse were used to confirmation.
as §1
The first induction was done to 38 mice at day 1 by using 5-weeks male DBA/1J mouse (Orient Bio Inc., Korea), and the mice were divided into the preventive group consisting of 16 mice administered by a peptide composition before CIA inducement (i.e. 8 mice of 1 nM, 100 μl (around 0.2 ng dose) and 8 mice of 10 nM, 100 μl (around 2 ng dose)), the therapeutic group consisting of 16 mice administered by a peptide composition after CIA inducement (i.e. 8 mice of 1 nM, 100 μl and 8 mice of 10 nM, 100 μl), and the PBS treatment group consisting of 6 mice.
To the preventive group, the treatment was done by intradermal injection in each suitable concentration at day 2, 4, 6, 21, 23, 25, 35, 37 and 39. […]

## CC[C@H](C)[C@H](NC(=O)[C@H](Cc1ccccc1)NC(=O)[C@H](CCCNC(=N)N)NC(=O)[C@H](CC(C)C)NC(=O)[C@H](CCCNC(=N)N)NC(=O)[C@H](CO)NC(=O)[C@@H](NC(=O)[C@H](CC(C)C)NC(=O)[C@H](CC(C)C)NC(=O)[C@H](C)NC(=O)[C@@H]1CCCN1C(=O)[C@H](CCCNC(=N)N)NC(=O)[C@H](C)NC(=O)[C@@H](N)CCC(=O)O)[C@@H](C)O)C(=O)N1CCC[C@H]1C(=O)N[C@@H](CCCCN)C(=O)O [PEP 1]
[1]
  survival during administration: all mice were survived
[2]
  survival during administration: all mice were survived
